{
  "sequences": {"note": "Chains of the proteins cited; added tags and fusions are not shown. Lines headed by an entry give the natural chain unless they say otherwise; changes in a name come on top. Residues count along the entry.", "UniProt P25929, whole entry": "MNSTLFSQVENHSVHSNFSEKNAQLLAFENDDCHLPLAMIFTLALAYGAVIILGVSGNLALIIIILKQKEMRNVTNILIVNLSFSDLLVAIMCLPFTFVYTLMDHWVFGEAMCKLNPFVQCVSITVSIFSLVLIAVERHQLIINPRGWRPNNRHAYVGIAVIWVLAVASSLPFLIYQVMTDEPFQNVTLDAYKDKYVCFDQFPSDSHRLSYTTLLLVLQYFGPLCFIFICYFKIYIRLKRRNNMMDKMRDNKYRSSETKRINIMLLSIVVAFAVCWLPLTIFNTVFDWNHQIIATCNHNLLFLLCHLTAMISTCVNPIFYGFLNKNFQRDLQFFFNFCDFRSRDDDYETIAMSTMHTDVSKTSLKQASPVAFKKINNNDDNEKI", "UniProt Q9ERC0, 1-381": "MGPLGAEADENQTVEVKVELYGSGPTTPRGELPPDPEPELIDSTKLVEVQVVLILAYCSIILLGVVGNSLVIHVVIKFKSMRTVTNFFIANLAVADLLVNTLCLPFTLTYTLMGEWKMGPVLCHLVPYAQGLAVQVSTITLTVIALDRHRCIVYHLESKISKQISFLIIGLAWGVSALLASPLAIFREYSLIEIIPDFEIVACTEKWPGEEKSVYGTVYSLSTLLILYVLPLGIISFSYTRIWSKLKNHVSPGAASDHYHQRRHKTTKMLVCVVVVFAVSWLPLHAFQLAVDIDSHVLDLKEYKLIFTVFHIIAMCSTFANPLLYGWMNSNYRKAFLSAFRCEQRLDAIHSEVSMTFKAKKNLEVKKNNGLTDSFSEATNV", "UniProt P49146, whole entry": "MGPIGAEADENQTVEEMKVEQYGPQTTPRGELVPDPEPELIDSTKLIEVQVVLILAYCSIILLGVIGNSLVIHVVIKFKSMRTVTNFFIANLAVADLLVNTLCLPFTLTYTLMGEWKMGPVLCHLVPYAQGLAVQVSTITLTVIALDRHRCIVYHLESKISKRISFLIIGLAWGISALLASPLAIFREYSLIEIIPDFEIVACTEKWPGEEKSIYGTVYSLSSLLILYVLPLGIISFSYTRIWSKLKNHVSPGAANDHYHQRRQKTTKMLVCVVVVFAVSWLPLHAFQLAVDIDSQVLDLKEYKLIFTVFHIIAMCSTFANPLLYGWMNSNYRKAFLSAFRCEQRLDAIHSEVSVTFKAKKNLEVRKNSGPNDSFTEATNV", "UniProt P50391": "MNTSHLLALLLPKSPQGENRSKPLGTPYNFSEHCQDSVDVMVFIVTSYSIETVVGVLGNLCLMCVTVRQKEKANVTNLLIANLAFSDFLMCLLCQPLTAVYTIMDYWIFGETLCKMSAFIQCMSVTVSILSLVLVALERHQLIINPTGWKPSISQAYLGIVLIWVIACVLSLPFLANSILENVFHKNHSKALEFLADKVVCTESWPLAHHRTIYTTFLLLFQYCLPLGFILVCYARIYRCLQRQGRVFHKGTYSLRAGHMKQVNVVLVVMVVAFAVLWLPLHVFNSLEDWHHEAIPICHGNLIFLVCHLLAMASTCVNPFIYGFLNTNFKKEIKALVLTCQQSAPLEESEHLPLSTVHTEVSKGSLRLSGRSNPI"},
  "source": "patent US6420532B1",
  "about": "“Method of obtaining compositions comprising Y2 specific compounds” (Synaptic Pharmaceutical Corporation, priority 1994, dated 2002)",
  "key": {"[1]": {"target": "T1, human Y1 receptors (Homo sapiens, UniProt P25929)", "T1 construct": "expressed in transfected cells; host or cells: COS-7 (transient, DEAE-dextran)", "assay": "Association time course and saturation binding of 125I-PYY, COS-7 membranes expressing human Y1"}, "[2]": {"target": "rat Y2a receptor (Rattus norvegicus, UniProt Q9ERC0)", "conditions": "read-out: apparent Kd, one-site model"}, "[3]": {"target": "T2, human Y2 receptor (Homo sapiens, UniProt P49146)", "assay": "125I-PYY binding to membranes from 293 stable clone (293-hY2-10)", "set-up": "expressed in transfected cells", "conditions": "read-out: apparent Kd"}, "[4]": {"target": "T2, human Y2 receptor", "assay": "125I-PYY binding to membranes from stably transfected NIH-3T3 cells (N-hY2-5)", "set-up": "expressed in transfected cells", "conditions": "read-out: apparent Kd", "source_text": "Two positive clones were identified and isolated for further study (293 clone #10 and NIH-3T3 clone #5). […] The data serve to emphasize that the receptor/G protein interactions for a given receptor clone can vary depending upon the resident G proteins in the host cell line (93). Additional factors such as receptor density and receptor reserve can also play a role (92)."}, "[5]": {"target": "T1, human Y1 receptors", "assay": "Competitive displacement of 125I-PYY, membranes of COS-7 cells transiently expressing human Y1", "assay_type": "binding", "conditions": "read-out: Y1 (Ki); Table 4; unit inferred, nM"}, "[6]": {"target": "T3, CG-13 receptors (human Y2 receptor) (Homo sapiens, UniProt P49146)", "T3 construct": "expressed in transfected cells; host or cells: COS-7 (transient, DEAE-dextran)", "assay": "Competitive displacement of 125I-PYY, membranes of COS-7 cells transiently expressing CG-13 (human Y2)", "assay_type": "binding", "conditions": "read-out: Y2 (Ki); Table 4; unit inferred, nM"}, "[7]": {"target": "T4, human Y4 receptors (Homo sapiens, UniProt P50391)", "T4 construct": "expressed in transfected cells; host or cells: COS-7 (transient, DEAE-dextran)", "assay": "Competitive displacement of 125I-PYY, membranes of COS-7 cells transiently expressing human Y4", "assay_type": "binding", "conditions": "read-out: Y4 (Ki); Table 4; unit inferred, nM"}},
  "data": [
    {"substance": "^125I-PYY", "values": [
      {"measurement": "Kd", "setting": "[1]", "value": 0.062, "unit": "nM"},
      {"measurement": "Kd", "setting": "[2]", "value": 0.26, "unit": "nM"},
      {"measurement": "Kd", "setting": "[3]", "value": 0.003, "unit": "nM"},
      {"measurement": "Kd", "setting": "[4]", "value": "0.008 ± 0.002", "unit": "nM"}
    ]},
    {"substance": "melanostatin [NPY, frog (melanostatin)]", "values": [
      {"measurement": "Ki", "setting": "[5]", "value": 0.07, "unit": "nM"},
      {"measurement": "Ki", "setting": "[6]", "value": 0.87, "unit": "nM"},
      {"measurement": "Ki", "setting": "[7]", "value": 1.2, "unit": "nM"}
    ]}
  ]
}
